Source: patent publication EP4790062A1, “PHAGE PARTICLE COMPLEX, PREPARATION METHOD THEREFOR, AND USE THEREOF” (Pingshan Translational Medicine Center, Shenzhen Bay …, priority 2023, dated 2025)

Chains of the proteins cited; added tags and fusions are not shown.
UniProt P03372, whole entry: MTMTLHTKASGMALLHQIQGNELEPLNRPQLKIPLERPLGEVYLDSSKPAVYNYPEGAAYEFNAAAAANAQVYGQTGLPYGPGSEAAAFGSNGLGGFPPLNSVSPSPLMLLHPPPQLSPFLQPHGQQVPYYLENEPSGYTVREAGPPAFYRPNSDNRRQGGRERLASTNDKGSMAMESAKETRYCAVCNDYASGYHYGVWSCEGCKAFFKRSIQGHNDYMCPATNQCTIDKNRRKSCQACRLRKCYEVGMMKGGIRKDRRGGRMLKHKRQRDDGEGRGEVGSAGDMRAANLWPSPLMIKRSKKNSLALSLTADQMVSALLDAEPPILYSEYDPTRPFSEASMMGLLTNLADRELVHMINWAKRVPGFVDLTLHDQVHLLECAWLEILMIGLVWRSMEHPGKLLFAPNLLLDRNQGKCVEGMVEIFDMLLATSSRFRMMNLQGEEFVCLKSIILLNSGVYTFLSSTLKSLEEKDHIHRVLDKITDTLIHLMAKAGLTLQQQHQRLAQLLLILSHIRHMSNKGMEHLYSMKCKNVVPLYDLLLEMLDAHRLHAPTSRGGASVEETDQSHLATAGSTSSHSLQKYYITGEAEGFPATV

Molecular target: ERα protein (Homo sapiens, UniProt P03372)
Assay: Affinity to ERα protein by the MST method
Assay type: binding
Details: FAM-tagged peptide 40nM, protein 2-fold gradient dilution, 16 concentrations
Procedure: The affinity of the sulfonium stapled bicyclic peptide inhibitor and ERα protein was determined by the MST method. The purified 10µL STAT3 protein solution (about 100µM) was taken and subjected to a 2-fold gradient dilution to prepare 16 concentration gradient dilutions. The peptides with the FAM tags were diluted to a final concentration of 40nM. 10µL of the protein gradient dilutions was taken for mixing. A mixed sample was sucked with a capillary to perform the MST experiment. Table 11. Peptide preparation and affinity assay with screened peptides

Row | Sequence | pKd
1 | GMAQQAKWMIRWLLGM [ER-W1-3M] | 5.29
2 | GMARGRGQMQFYTSSM [ER-R7-3M] | 6.04
3 | GMCGSLQPMPWLARYM [ER-W3-3M] | 5.99
4 | GMCPWYKGMVCSRFVM [ER-C1-3M] | 5.95
5 | GMIRYPSTMLDRPRQM [ER-P3-3M] | 5.12
6 | GMRISQTQMQDSWDWM [ER-R1-3M] | 5.52
7 | GMRLAVTTMGYGFLQM [ER-R2-3M] | 6.59
8 | GMRRTYYRMRRAPQLM [ER-R9-3M] | 5.96
9 | GMSLCAHPMAGVPSYM [ER-S1-3M] | 6.19
10 | GMYVVLQRMYRPRNVM [ER-P2-3M] | 6.03
11 | YMDCLCPRMRSFAGAM [ER-R4-3M] | 6.42
12 | YMLAKQYPMRQASCSM [ER-X2-3M] | 6.44
13 | YMLRPQQVMRLFATSM [ER-P4-3M] | 5.66
14 | YMPIARKSMRHGRSSM [ER-X1-3M] | 6.28
15 | YMPTSLQFMAGQRHPM [ER-P1-3M] | 5.07
16 | YMQATFPSMRGLQCDM [ER-P5-3M] | 6.26
17 | YMSPKLIAMGLQTPIM [ER-S2-3M] | 6.38
18 | YMSPRNGHMLRNSSDM [ER-S3-3M] | 6.43
19 | YMSVRDADMRQRGASM [ER-R5-3M] | 5.28
20 | YMVRGRAQMSPALVQM [ER-V2-3M] | 4.98

pKd: −log10 of the molar value.
